Binding of CDR-mutated scFvs to a peptide of the spike HR2 region

From the AlphaSeq antibody data of Engelhart et al. 2022 (doi:10.1038/s41597-022-01779-4), copy in the FLAb collection.

Target peptide (SARS-CoV-2 spike, HR2 region): PDVDLGDISGINAS

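The starting antibody came from a phage panning campaign against this peptide. Variants in AAYL50 differ from the parent at up to three CDR positions; double and triple changes were sampled at random. AlphaSeq pools MATa yeast showing the antibodies with MATalpha yeast showing the peptide. Pairs that bind mate more often; barcode pairs of the diploids are counted by sequencing. A regression on co-assayed BCL2-family reference pairs converts the normalised counts of each replicate to an apparent Kd. There are three technical replicates.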

Parent: Ab-14, a human scFv built as VH, a 15-residue (Gly4Ser)3 linker, VL. Only the CDRs of the light chain vary.
VH: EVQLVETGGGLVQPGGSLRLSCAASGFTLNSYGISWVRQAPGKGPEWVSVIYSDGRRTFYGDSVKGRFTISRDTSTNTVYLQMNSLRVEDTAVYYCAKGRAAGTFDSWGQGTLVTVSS
VL: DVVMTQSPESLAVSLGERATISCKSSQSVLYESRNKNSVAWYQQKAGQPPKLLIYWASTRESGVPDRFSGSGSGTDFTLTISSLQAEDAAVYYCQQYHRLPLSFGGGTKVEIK

Changes read parent residue, position, new residue, counted from the first residue of the VL shown. Each Kd is an estimate from the mating assay, the geometric mean of the replicates in which the pair was seen; lower is stronger. Where no diploid with the target was found in any replicate, the entry reads "no signal": below detection, most likely a poor binder, though not proof of it.

changes | Kd | replicates with signal | signal with controls
A57I T59R S103M | 14 µM | 2 of 3 | 0 of 9
S25W V29G L102C | 8.8 nM | 3 of 3 | 0 of 9
Y31H R34Q R99G | 56 nM | 3 of 3 | 2 of 9
L30D R99W S103C | 5.1 nM | 3 of 3 | 0 of 9
R34I A40S Q96W | 90 µM | 1 of 3 | 1 of 9
S28L L30V L100H | 20 µM | 3 of 3 | 1 of 9
Y31W S33T S103K | 230 nM | 3 of 3 | 0 of 9
L30K S33R A40S | 30 µM | 1 of 3 | 1 of 9
L30T K36P V39M | 32 nM | 3 of 3 | 0 of 9
K24H A57K E61A | 14 nM | 3 of 3 | 0 of 9
E32Y S58N Q96T | no signal | 0 of 3 | 0 of 9
S26R V29K K36D | 9.4 nM | 3 of 3 | 0 of 9
K24H Q27V A40L | no signal | 0 of 3 | 4 of 9
S33I N37R Q95G | 1.2 µM | 1 of 3 | 1 of 9
Y31N T59L E61A | 25 nM | 3 of 3 | 7 of 9
S28C Y31N Q95A | 9.0 nM | 3 of 3 | 1 of 9
S26V E32M T59N | no signal | 0 of 3 | 1 of 9
S28T E32W V39L | 2.7 µM | 3 of 3 | 1 of 9
Q27A S38W T59G | 2.2 µM | 1 of 3 | 0 of 9
K24H S58C R60C | 24 µM | 2 of 3 | 3 of 9
Y31K R60L R99D | 63 nM | 2 of 3 | 0 of 9
Y31L N35Q R99W | 15 nM | 3 of 3 | 2 of 9
S26A Q27H R34F | 5.2 nM | 3 of 3 | 0 of 9
R34M N37L Y97M | no signal | 0 of 3 | 0 of 9
A57K H98C | 230 nM | 3 of 3 | 0 of 9
R34D S62A | 1.2 nM | 3 of 3 | 2 of 9
L30M N35R R99I | no signal | 0 of 3 | 1 of 9
L30G N35H L100V | no signal | 0 of 3 | 0 of 9
A57R Q95L H98A | 98 nM | 1 of 3 | 0 of 9
W56L T59H | 71 nM | 3 of 3 | 6 of 9
L30R A57D | 110 nM | 3 of 3 | 2 of 9
N35Y S62V | 120 nM | 3 of 3 | 1 of 9
K24M N35W S62D | 52 nM | 3 of 3 | 0 of 9
Y31C L102C | no signal | 0 of 3 | 0 of 9
V29Y N37F E61S | 19 µM | 2 of 3 | 1 of 9
S33C S38A P101T | 10 µM | 1 of 3 | 0 of 9
S26I V29F L102M | 68 nM | 3 of 3 | 1 of 9
Y31M V39N Q96T | no signal | 0 of 3 | 0 of 9
S38F T59M Q95H | no signal | 0 of 3 | 1 of 9
R60L S62W Q96T | 290 nM | 3 of 3 | 5 of 9
L30V R34G P101I | 3.2 µM | 2 of 3 | 0 of 9
L30W K36M A57N | 790 nM | 3 of 3 | 2 of 9
K24H S58G | 21 µM | 2 of 3 | 5 of 9
N35P V39K P101G | no signal | 0 of 3 | 0 of 9
S25I L102Q S103R | no signal | 0 of 3 | 0 of 9
E32T N35W W56Q | 170 nM | 3 of 3 | 2 of 9
S38H E61R S62A | 3.8 µM | 2 of 3 | 3 of 9
S58R H98N R99N | 6.6 µM | 3 of 3 | 2 of 9
S33A L102R S103H | 5.0 µM | 2 of 3 | 0 of 9
S58A P101K | no signal | 0 of 3 | 4 of 9
N35G R60Q L100I | 130 µM | 2 of 3 | 6 of 9
N35C R99P | 67 µM | 2 of 3 | 0 of 9
R34K S38H S103Q | 4.1 µM | 3 of 3 | 3 of 9
L30G Y31P Q95K | no signal | 0 of 3 | 1 of 9
A57R T59D S62Y | no signal | 0 of 3 | 0 of 9
Q27Y E32H | 21 nM | 3 of 3 | 1 of 9

8 of these entries, quoted again:

changes,Kd,replicates with signal,signal with controls
S33C S38A P101T,10 µM,1 of 3,0 of 9
W56L T59H,71 nM,3 of 3,6 of 9
K24H S58G,21 µM,2 of 3,5 of 9
L30G N35H L100V,no signal,0 of 3,0 of 9
S38F T59M Q95H,no signal,0 of 3,1 of 9
S58R H98N R99N,6.6 µM,3 of 3,2 of 9
S38H E61R S62A,3.8 µM,2 of 3,3 of 9
Q27Y E32H,21 nM,3 of 3,1 of 9

In this assay the parent's reference entry averaged 4.4 nM; its copy inside this library read 48 nM. Empty control strains, which show no peptide, gave a signal in 18% of pairings with library AAYL50; the median was 15 µM and 95% of these signals were weaker than 970 nM. No background was subtracted. For each scFv, signals with the empty controls are counted beside the result.